{
  "source": "paper PMC3426641",
  "about": "(Biochemistry, 2012)",
  "tested_on": "kanamycin A",
  "assay": "purified protein, by the assay type",
  "settings": "other: Eis_Msm, pH 8.0",
  "key": {"[1]": {"settings": "fixed AcCoA 0.1 mM, varying AG, 25 °C"}, "[2]": {"settings": "KAN acetylation, [AcCoA] 200 μM, 25.0 °C"}, "[3]": {"settings": "KAN acetylation, [AcCoA] 500 μM, 25.0 °C"}, "[4]": {"settings": "random sequential mechanism, 25.0 °C"}},
  "data": [
    {"substance": "Eis_Msm (Mycolicibacterium smegmatis MC2 155)", "values": [
      {"measurement": "Km", "setting": "[1]", "result": "278 ± 36", "unit": "µM"},
      {"measurement": "kcat", "setting": "[1]", "result": 0.108, "unit": "s⁻¹"},
      {"measurement": "Km", "setting": "[2]", "result": "450 ± 31", "unit": "µM"},
      {"measurement": "kcat", "setting": "[2]", "result": 0.18, "unit": "s⁻¹"},
      {"measurement": "Km", "setting": "[3]", "result": "756 ± 66", "unit": "µM"},
      {"measurement": "kcat", "setting": "[3]", "result": 0.4, "unit": "s⁻¹"},
      {"measurement": "kcat", "setting": "[4]", "result": "1.6 ± 0.5", "unit": "s⁻¹"},
      {"measurement": "kcat/Km", "setting": "[4]", "result": "630 ± 200", "unit": "s^−1M^−1"}
    ]}
  ]
}
